The test system of one data set is male Sprague Dawley rats. Description: Opioid-induced respiratory depression (OIRD) after IP fentanyl and/or xylazine, reversal by treatment. Conditions: for reversal of opioid induced respiratory depression elicited by combined fentanyl+xylazine: fentanyl 0.5 mg/kg + xylazine 1 mg/kg IP, FIG. 1D.
Data set [1] relates to unrestrained and freely moving animals. The data set is described as follows: Apneas and hypopneas evoked by fentanyl, whole-body plethysmography.
In a further data set the test system is experimental rats. Conditions: lethal dose of fentanyl 1.3 mg/kg; oxytocin 200 nmol/kg IP; FIG. 3A.

For xylazine, the respiratory depression elicited result in the data set on male Sprague Dawley rats (IP fentanyl 0.5 mg/kg and xylazine 1 mg/kg alone or in combination, 10-15 minutes post-injection) is “significantly elicited respiratory depression”.

For the compound `C=CCN1CC[C@]23c4c5ccc(O)c4O[C@H]2C(=O)CC[C@@]3(O)[C@H]1C5` [Naloxone], in the data set on male Sprague Dawley rats, the “reversal of opioid induced respiratory depression elicited by combined fentanyl+xylazine” value (from here on “reversal … by combined fentanyl+xylazine”) is “only partially effective”.

As for `CC[C@H](C)[C@@H]1NC(=O)[C@H](Cc2ccc(O)cc2)NC(=O)[C@@H](N)CSSC[C@@H](C(=O)N2CCC[C@H]2C(=O)N[C@@H](CC(C)C)C(=O)NCC(N)=O)NC(=O)[C@H](CC(N)=O)NC(=O)[C@H](CCC(N)=O)NC1=O`, the “reversal … by combined fentanyl+xylazine” value in the data set on male Sprague Dawley rats is given as “potently reversed”. Also, the “reversal … by combined fentanyl+xylazine” value with male Sprague Dawley rats (listed as oxytocin) is listed as “potently reverses”. The “reversal of OIRD” value with male Sprague Dawley rats (oxytocin 200 nmol/kg IP 10-15 minutes after fentanyl 0.5 mg/kg IP, vs untreated controls) was “significantly reversed OIRD”. The breathing frequency result in the data set on male Sprague Dawley rats (oxytocin 200 nmol/kg IP 10-15 minutes after fentanyl, vs untreated controls, FIG. 1A) is reported as “increased”. Also, the tidal volume result with male Sprague Dawley rats (oxytocin 200 nmol/kg IP 10-15 minutes after fentanyl, vs untreated controls, FIG. 1B) is “increased”. For the same compound, the minute ventilation entry in the data set with male Sprague Dawley rats (oxytocin 200 nmol/kg IP 10-15 minutes after fentanyl, vs untreated controls, FIG. 1C) is given as “increased”. Also, in data set [1] (FIG. 2A), the “incidence of apneas evoked by fentanyl” value was “significantly diminished” and the “incidence of hypopneas evoked by fentanyl” value is listed as “significantly diminished”. Further, the “diminishing the occurrence of apneas evoked by fentanyl, compared to naloxone” value in data set [1] (FIG. 2B) is listed as “significantly potent compared to naloxone”. Further, the survival result in the data set with experimental rats is “increased the survival”.

Values taken from patent publication US20260207703A1 (priority 2023, published 2026).
